The numbers were not newly measured in patent publication US20220400686A1, “COMPOSITIONS AND METHODS FOR ON-DEMAND RELEASE OF ANTIMICROBIAL AGENTS” (priority 2019, published 2022), which cites them from elsewhere.

For this data set the following is noted: previously shown (Hernandez et al. 2014); cited from earlier work.

Take “/5Carboxyl/mCmGTTmCmG/3Acryd/ [0 PS oligo]”: the “stability to mouse and human serum” value is “enhanced stability”.
